From US20230203155A1 (ALMAC DISCOVERY, published 2023) come the findings set out here.

Chains of the proteins cited; added tags and fusions are not shown. Chains listed by the source or under a name are the forms on record and can include a tag or linker.
human ROR1-hFc fusion protein (extracellular domain), one chain, as listed by the source limits assumed: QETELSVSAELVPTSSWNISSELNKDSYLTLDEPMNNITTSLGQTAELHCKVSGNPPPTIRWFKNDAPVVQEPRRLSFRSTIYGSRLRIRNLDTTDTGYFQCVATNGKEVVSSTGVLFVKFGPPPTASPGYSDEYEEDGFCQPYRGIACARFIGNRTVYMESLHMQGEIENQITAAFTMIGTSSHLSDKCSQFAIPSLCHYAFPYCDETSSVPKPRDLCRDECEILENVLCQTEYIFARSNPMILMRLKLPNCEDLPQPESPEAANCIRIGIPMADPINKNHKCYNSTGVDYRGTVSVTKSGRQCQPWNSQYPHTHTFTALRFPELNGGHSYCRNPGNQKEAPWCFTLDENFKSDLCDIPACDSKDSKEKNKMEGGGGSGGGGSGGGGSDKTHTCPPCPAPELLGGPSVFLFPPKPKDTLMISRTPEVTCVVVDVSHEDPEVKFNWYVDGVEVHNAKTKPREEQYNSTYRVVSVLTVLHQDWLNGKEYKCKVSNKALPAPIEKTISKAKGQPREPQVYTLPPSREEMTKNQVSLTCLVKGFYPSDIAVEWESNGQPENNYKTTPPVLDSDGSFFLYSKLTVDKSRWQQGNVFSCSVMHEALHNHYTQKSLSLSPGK
human ROR2-hFc fusion protein (extracellular domain), one chain, as listed by the source limits assumed: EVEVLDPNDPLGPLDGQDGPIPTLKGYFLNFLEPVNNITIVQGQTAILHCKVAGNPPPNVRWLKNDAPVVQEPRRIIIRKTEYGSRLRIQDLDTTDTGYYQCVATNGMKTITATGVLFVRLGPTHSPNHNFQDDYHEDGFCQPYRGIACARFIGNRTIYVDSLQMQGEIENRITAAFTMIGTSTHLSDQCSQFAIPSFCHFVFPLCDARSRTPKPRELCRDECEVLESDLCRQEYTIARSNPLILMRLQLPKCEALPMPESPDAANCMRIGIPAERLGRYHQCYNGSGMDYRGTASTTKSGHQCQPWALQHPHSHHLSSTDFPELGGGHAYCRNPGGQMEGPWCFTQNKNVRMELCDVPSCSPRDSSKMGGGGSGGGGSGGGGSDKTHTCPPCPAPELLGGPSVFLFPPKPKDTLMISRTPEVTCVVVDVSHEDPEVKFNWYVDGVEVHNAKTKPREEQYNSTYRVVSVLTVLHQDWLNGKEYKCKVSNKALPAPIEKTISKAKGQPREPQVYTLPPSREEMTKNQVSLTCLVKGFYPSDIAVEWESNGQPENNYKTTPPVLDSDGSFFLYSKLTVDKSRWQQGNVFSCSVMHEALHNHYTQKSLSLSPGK

Like-named read-outs stand apart in the source and are kept apart here.

Experiment [1] deals with T1, human ROR1-hFc fusion protein (extracellular domain) (human).
T1 construct: Whole entry 'human ROR1-Fc (CHO)'; also called hROR1; huROR1-Fc
As to the kind of experiment: SPR, ROR1-hFc on chip.

Experiment [2] concerns the target T2, human ROR2-hFc fusion protein (extracellular domain) (human).
T2 construct: Whole entry 'human ROR2-Fc (CHO)'; also called hROR2
In words: SPR, ROR2-hFc on chip.

Experiment [3] concerns the target T3, human ROR1 on the surface of ROR1hi human cancer cell lines (human, UniProt Q01973).
T3 construct: whole, on cells; Cell line is named under assay; also called cell surface ROR1
In words: flow cytometry, A549 (ROR1hi) against A427 (ROR1low) cells, PE-anti-human antibody.

Experiment [4] concerns the target T1, human ROR1-hFc fusion protein …. As to the kind of experiment: SPR, ROR1-hFc on chip. This is another data set of the same source.

B1: P3A1 hFc-MMAE (Fc fusion)
chain: TRVDQTPRTATKETGESLTINCVLTDTSYGLYSTSWFRKNPGTTDWERMSIGGRYVESVNKGAKSFSLRIKDLTVADSATYYCKAREARHPWLRQWYDGAGTVLTVNGGGGSGGGGSGGGGS[human IgG1 Fc with changes cut from this listing]
modifications: MC vc PAB MMAE on engineered Cys S252C (Kabat); DAR 2
notes: also called P3A1 hFc-vcMMAE
For B1, in experiment [1], the Kd came out at 0.38 nM, the koff stood at 0.001 s⁻¹ and the kon is 2.68e+06 M⁻¹ s⁻¹. In addition, the binding result in experiment [2] is listed as “no binding”. Moreover, the binding result in experiment [3] is “binds”.

B2: P3A1 hFc (Fc fusion)
chain: TRVDQTPRTATKETGESLTINCVLTDTSYGLYSTSWFRKNPGTTDWERMSIGGRYVESVNKGAKSFSLRIKDLTVADSATYYCKAREARHPWLRQWYDGAGTVLTVNGGGGSGGGGSGGGGS[human IgG1 Fc with changes cut from this listing]
notes: also called P3A1 hFc (S252C)
Turning to B2, in experiment [1], the affinity, expressed as Kd, was 0.084 nM; the koff was 0.000564 s⁻¹; the kon is 1.07e+07 M⁻¹ s⁻¹. Besides, the binding result in experiment [2] was “no binding”. Moreover, in experiment [4], binding was put at a Kd of 0.084 nM, the koff is 0.000564 s⁻¹ and the kon was 1.07e+07 M⁻¹ s⁻¹.
